Measurements: ChEMBL document CHEMBL1131586, “New antipsychotic agents with serotonin and dopamine antagonist properties based on a pyrrolo[2,1-b][1,3]benzothiazepine structure” (J Med Chem, 1998)

Amino acid sequences for entries named in this document (tags omitted). A change or cut given only in a name is not applied to a line headed by its entry.
UniProt P18901, whole entry: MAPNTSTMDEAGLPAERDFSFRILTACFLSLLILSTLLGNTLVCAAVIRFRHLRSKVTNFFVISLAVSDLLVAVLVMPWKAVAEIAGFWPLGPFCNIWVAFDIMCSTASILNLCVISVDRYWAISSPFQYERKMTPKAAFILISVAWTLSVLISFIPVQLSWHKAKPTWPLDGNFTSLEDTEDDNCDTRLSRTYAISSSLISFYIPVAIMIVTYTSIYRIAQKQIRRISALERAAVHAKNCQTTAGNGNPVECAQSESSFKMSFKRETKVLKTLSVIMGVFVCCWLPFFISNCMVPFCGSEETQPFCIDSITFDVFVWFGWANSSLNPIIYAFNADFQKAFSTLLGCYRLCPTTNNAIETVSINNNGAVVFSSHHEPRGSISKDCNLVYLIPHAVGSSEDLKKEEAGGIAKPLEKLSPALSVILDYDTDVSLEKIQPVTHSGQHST
UniProt P30994: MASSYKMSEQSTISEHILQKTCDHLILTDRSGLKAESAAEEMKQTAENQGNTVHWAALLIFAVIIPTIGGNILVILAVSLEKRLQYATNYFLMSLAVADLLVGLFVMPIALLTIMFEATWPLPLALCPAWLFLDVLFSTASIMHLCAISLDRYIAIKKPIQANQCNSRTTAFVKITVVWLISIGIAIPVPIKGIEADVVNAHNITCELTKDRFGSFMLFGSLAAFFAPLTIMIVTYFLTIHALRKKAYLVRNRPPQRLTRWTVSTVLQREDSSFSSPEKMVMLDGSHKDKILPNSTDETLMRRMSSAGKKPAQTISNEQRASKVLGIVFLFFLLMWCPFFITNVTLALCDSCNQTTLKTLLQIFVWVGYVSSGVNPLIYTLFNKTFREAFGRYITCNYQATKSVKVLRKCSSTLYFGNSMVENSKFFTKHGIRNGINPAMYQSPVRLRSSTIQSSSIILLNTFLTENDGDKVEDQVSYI
UniProt P08909: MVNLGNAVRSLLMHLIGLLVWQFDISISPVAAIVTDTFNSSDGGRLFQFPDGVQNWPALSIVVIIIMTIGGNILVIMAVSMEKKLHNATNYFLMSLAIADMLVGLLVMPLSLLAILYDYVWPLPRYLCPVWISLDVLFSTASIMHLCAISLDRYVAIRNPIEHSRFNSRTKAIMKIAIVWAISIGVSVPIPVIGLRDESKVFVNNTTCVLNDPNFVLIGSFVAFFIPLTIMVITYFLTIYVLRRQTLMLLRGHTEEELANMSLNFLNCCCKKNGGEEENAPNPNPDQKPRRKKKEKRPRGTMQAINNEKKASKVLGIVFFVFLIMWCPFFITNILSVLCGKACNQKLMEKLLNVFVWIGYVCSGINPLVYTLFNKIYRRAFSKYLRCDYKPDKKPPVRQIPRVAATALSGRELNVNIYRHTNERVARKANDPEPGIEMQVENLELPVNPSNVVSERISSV
UniProt P14842: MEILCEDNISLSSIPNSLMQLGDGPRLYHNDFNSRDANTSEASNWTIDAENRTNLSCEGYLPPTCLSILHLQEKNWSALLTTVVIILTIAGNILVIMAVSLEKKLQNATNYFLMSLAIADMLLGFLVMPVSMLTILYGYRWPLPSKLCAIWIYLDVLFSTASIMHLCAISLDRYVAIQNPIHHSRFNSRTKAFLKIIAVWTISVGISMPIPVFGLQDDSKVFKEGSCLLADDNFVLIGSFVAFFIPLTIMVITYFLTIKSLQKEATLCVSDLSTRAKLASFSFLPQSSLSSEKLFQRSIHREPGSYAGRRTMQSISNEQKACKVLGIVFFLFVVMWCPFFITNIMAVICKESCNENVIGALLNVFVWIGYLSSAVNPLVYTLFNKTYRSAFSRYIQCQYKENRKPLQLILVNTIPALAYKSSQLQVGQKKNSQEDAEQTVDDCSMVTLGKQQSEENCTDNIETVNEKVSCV

Columns and labels:
[1] = biological target: D(1A) dopamine receptor (Rattus norvegicus, UniProt P18901)
[2] = biological target: Serotonin 2 (5-HT2) receptor (Rattus norvegicus, UniProt P30994+P08909+P14842)

Compound	Ki [1] [nM]	Log Ki [2]
CN1CCN(C2Cn3cccc3Sc3ccc(Cl)cc32)CC1 (racemic)	25.1	-8.9
CN1CCN(C2Cn3cccc3Sc3ccc(Cl)cc32)CC1 (stereo in doubt; (+)3b)	–	-8.8
CN1CCN(C2Cn3cccc3Sc3ccc(Cl)cc32)CC1 (stereo in doubt; (-)3b)	20	-8.7
